The T/C is the ratio of treated to control.

The text below walks through data of patent US5036008A, “Antitumor antibiotic BU-3285T” (Bristol-Myers Company, priority 1990, dated 1991).

In this series the test system is B16 melanoma. Nature of the series: In vivo antitumor activity against B16 melanoma (Table 10). Particulars: Q3D × 3.

Take `CO[C@@]12[C@H](COC(N)=O)C3=C(C(=O)C(C)=C(N)C3=O)N1C[C@@H]1N[C@@H]12` [Mitomycin C, reference compound]: the “MST (median survival time)” value is, setting by setting: (1 mg/kg/day ip) 23.0 days; (2 mg/kg/day ip) 34.5 days. For the same compound, the T/C (2 mg/kg/day ip, *2 significant, T/C ≥ 125%) is reported as 203%.

Consider `CCCCC/C=C/C=C\C=C/C(O)C(C)C(C/C=C/C1OC(=O)C=CC1O)OS(=O)(=O)O` (stereo not drawn) [BU-3285T], for which the “Body wt. change on day 5” value is “+0.8 g” (0.1 mg/kg/day ip); “+0.3 g” (0.3 mg/kg/day ip); “+0.5 g” (1 mg/kg/day ip); 0.0 g (3 mg/kg/day ip); “+0.5 g” (10 mg/kg/day ip). For the same compound, the “MST (median survival time)” value reads like this: (0.1 mg/kg/day ip) 18.5 days; (0.3 mg/kg/day ip) 20.0 days; (1 mg/kg/day ip) 22.5 days; (3 mg/kg/day ip) 26.5 days; (10 mg/kg/day ip) 21.5 days. For the same compound, the T/C by setting is: (0.1 mg/kg/day ip, significant if T/C ≥ 125%) 109%; (0.3 mg/kg/day ip, significant if T/C ≥ 125%) 118%; (1 mg/kg/day ip, *2 significant, T/C ≥ 125%) 132%; (3 mg/kg/day ip, *2 significant, T/C ≥ 125%) 156%; (10 mg/kg/day ip, *2 significant, T/C ≥ 125%) 126%.
